Test results taken from ChEMBL document CHEMBL1157138, “A binary QSAR model for classification of hERG potassium channel blockers” (Bioorg Med Chem, 2008).

Protein sequences, listed by entry. Tags and fused reporters are not part of them. Lines headed by an entry give the natural chain unless they say otherwise; changes in a name come on top.
UniProt Q12809: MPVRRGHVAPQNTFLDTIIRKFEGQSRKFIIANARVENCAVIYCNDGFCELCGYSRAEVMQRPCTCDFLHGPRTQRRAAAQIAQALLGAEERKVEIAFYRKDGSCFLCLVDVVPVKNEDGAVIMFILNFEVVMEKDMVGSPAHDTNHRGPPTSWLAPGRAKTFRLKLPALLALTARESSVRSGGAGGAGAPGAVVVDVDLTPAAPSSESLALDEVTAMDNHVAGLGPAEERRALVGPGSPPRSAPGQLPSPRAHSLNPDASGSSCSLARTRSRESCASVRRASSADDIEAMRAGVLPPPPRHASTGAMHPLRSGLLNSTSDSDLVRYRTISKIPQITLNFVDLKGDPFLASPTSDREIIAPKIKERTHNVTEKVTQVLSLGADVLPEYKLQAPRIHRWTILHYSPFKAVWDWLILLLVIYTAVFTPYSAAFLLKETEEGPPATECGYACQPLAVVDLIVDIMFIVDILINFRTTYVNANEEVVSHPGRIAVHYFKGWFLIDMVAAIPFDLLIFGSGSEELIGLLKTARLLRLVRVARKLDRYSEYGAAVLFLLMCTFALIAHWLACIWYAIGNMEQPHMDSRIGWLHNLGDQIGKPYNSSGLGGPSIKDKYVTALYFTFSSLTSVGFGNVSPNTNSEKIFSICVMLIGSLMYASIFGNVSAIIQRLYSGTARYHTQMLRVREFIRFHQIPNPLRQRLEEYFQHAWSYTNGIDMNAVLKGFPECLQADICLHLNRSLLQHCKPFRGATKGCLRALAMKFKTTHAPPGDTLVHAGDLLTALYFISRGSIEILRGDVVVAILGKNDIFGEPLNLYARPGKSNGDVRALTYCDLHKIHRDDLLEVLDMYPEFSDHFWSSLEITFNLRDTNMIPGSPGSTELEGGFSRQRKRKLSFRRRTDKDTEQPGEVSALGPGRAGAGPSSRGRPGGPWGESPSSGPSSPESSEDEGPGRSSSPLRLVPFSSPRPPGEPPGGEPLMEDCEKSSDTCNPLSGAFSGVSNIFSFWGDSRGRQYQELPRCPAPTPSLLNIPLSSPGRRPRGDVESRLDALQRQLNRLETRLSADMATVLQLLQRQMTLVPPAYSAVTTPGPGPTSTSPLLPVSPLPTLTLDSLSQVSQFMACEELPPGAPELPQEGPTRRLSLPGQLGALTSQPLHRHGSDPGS

Target: Voltage-gated inwardly rectifying potassium channel KCNH2 (Homo sapiens, UniProt Q12809)
Test: Inhibition of human ERG potassium channel

Cc1nccn1C[C@H]1CCc2c(c3ccccc3n2C)C1=O [(R)-ONDANSETRON]
IC50: 810 nM
